The subject of experiment [1] is 17-beta-hydroxysteroid dehydrogenase type 2 (Callithrix jacchus). The experiment is described as follows: Inhibition of monkey placental microsomal 17beta-HSD2 assessed as inhibition of E1 formation using [2,4,6,7-3H]E2 as substrate at 1 uM after 10 mins by HPLC analysis.
For a further experiment, the species on record is Homo sapiens. The experiment is described as follows: Selectivity ratio of IC50 for human placental cytosolic 17beta-HSD1 to IC50 for human placental microsomal 17beta-HSD2. An outline of the steps:
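Cytosolic fraction from human placenta (ammonium sulfate precipitated) incubated with NADH 500 μM, test compound and [3H]E1 + E1 (500 nM final), 10 min; workup as for the type 2 assay (HgCl2 stop, ether extraction, HPLC, radiodetection). Mean of three determinations. For line 20, SF = IC50(17β-HSD1)/IC50(17β-HSD2).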

Experiment [2] deals with 17-beta-hydroxysteroid dehydrogenase type 2 (Callithrix jacchus). Nature of the experiment: Inhibition of monkey placental microsomal 17beta-HSD2 assessed as inhibition of E1 formation using [2,4,6,7-3H]E2 as substrate at 100 nM after 10 mins by HPLC analysis.
The species entered for a further experiment is Callithrix jacchus. Nature of the experiment: Inhibition of monkey placental microsomal 17beta-HSD1 assessed as inhibition of E2 formation using [2,4,6,7-3H]E1 as substrate at 1 uM after 10 mins by HPLC analysis.

Data on one compound can be found in ChEMBL document CHEMBL1914369, “Introduction of an electron withdrawing group on the hydroxyphenylnaphthol scaffold improves the potency of 17β-hydroxysteroid dehydrogenase type 2 (17β-HSD2) inhibitors” (J Med Chem, 2011).

The term inhibition denotes the drop in the measured response relative to a control, in per cent.

With `Oc1ccc(-c2ccc3c(O)cccc3c2)cc1C(F)(F)F`, the values for the inhibition (in experiment [1]; in experiment [2]; in the experiment listed under Callithrix jacchus) were 99%, 75% and 75%, respectively. The Ratio IC50 in the experiment filed under Homo sapiens worked out at 32.
